According to PMC8837141, “Structural and Functional Differences between Homologous Bacterial Ribonucleases” (International Journal of Molecular Sciences, 2022):

Columns and labels:
[1] = target: balifase (Bacillus licheniformis)
[2] = target: T1, binase (Bacillus pumilus) (UniProt P00649)
T1 sequence: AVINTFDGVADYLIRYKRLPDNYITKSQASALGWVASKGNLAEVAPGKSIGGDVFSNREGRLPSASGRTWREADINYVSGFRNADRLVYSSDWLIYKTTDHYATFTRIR

Question: For “barstar (from UniProt P11540 1-90) (natural protein)”, which IC50 of barstar for inhibition of cleavage of the G^ds RNA substrate by balifase (gel of the products; 0.7 µM enzyme, 1 µM substrate, 0.33–5.3 µM barstar) [1] is on record?
Answer: 2100 nM

Question: And the enzyme to barstar ratio at which complete inhibition of cleavage of the G^ds RNA substrate by balifase was achieved (barstar per enzyme) [1]?
Answer: 4

Question: And the IC50 of barstar for inhibition of cleavage of the G^ds RNA substrate by binase (gel of the products; 0.7 µM enzyme, 1 µM substrate, 0.33–5.3 µM barstar) [2]?
Answer: 1000 nM

Question: What about the enzyme to barstar ratio at which complete inhibition of cleavage of the G^ds RNA substrate by binase was achieved (barstar per enzyme) [2] of the same substance?
Answer: 2
